Target: PDGFRα (Homo sapiens (Human), UniProt P16234)
Experiment: PDGFRα kinase enzyme assay (Promega PDGFRα Kinase Enzyme System, ADP-Glo)
Format: biochemical
Details: 20 ng purified PDGFRα, 150 uM ATP, Poly (Glu4Tyr1) substrate, two hours, 11-point dose response; read-out: IC50 Values on PDGFRα Kinase Inhibition
Procedure: The PDGFRα enzyme assays were conducted per the manufacturer's directions (Promega PDGFRα Kinase Enzyme System and ADP Glo Assay Cat #V8011). […] 20 ng of purified PDGFRα protein was added to the test article. […] ADP-Glo was added to halt the kinase reaction and deplete the remaining ATP. Kinase detection reagent, containing luciferase and luciferin, was used to convert the ADP signal into luminescence. Luminescence was measured using a Molecular Devices Spectramax ID5 and compared to a standard curve to determine kinase activity. IC50s were calculated using Prism 9, Graphpad software.

By UniProt entry, the sequences of proteins in these tests, tags left out. Residues count along the entry.
UniProt P16234, 24-1089: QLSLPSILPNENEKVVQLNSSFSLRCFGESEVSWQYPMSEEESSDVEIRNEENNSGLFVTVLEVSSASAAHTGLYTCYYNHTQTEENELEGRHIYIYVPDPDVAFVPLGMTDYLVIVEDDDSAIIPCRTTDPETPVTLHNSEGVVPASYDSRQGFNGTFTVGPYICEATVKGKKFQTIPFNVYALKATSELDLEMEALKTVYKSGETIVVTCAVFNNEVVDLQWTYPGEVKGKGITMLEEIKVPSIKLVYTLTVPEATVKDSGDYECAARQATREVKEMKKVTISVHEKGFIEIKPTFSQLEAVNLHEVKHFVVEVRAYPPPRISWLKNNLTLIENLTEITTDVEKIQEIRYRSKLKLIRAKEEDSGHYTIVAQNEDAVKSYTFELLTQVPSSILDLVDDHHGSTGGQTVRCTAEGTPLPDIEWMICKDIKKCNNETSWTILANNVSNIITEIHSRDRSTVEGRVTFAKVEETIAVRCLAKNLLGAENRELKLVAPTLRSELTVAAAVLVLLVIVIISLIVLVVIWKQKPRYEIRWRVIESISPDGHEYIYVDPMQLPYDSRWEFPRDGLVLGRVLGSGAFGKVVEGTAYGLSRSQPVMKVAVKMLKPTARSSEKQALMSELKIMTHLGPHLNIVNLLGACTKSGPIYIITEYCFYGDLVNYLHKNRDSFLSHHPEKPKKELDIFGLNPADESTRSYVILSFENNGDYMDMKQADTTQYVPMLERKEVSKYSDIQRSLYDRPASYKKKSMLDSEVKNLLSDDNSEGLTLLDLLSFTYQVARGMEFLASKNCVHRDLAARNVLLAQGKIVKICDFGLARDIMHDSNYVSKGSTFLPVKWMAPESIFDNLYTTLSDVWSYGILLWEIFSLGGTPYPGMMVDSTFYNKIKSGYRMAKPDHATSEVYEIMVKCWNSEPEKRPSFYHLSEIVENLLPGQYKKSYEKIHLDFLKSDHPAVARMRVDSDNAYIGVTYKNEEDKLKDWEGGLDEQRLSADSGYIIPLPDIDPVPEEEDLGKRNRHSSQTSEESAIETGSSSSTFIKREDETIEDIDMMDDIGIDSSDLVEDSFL

Work on Cc1ccc(NC(=O)c2ccc(CN3CCN(C)CC3)cc2)cc1Nc1nc(-c2cccnc2)cs1 [Masitinib, masitinib, reference compound] yielded an IC50 of 45 nM.
